Values of other authors as cited in patent US10117862B2.
Only a part of the results on these compounds is given; other tests are left out.

What was measured:
[1] = metabolized in a liver into active and nonactive metabolites
[2] = long-term storage

CCC(=O)N(c1ccccc1)C1CCN(CCc2ccccc2)CC1
Share of metabolites discharged from a kidney [1]: 10%

CCC(=O)N(c1ccccc1)C1(C(=O)OC)CCN(CCC(=O)OC)CC1
Stability of aqueous solution [2]: unstable
